Data from patent US9266814B2, “Use of nitrooxy organic molecules in feed for reducing methane emission in ruminants, and/or to improve ruminant performance” (DSM IP ASSETS B.V., priority 2010, dated 2016).

What was measured:
[1] = test system: methanogenesis in rumen liquor; experiment: In vitro test for methane production (modified Hohenheim Forage value Test); type: cell-based; details: reduction in methane vs control, 8 hours at 39° C., average of two experiments
[2] = test system: methane production of dairy cows; experiment: In vivo effect in dairy cows (indirect calorimeters); set-up: species or system Holstein X Friesian dairy cows

| Compound | effect on methanogenesis (%) ([1]; 0.005% DM) | effect on methanogenesis (%) ([1]; 0.01% DM) | effect on methanogenesis (%) ([1]; 0.1% DM) | Methane production, % of control values ([2]; 500 mg/d) | Methane production, % of control values ([2]; 2500 mg/d) |
| --- | --- | --- | --- | --- | --- |
| O=[N+]([O-])OCCCCCO[N+](=O)[O-] | 6% | 45% | 100% | – | – |
| O=[N+]([O-])OCCCO [Compound 1, 3-Nitrooxypropanol] | – | – | – | 93 % of control | 90 % of control |
